Assay results taken from PMC6804466 (Acta Pharmaceutica Sinica. B, 2019).

Target: T1, hOAT3 (Homo sapiens, UniProt Q8TCC7)
T1 sequence (Q8TCC7 1-542): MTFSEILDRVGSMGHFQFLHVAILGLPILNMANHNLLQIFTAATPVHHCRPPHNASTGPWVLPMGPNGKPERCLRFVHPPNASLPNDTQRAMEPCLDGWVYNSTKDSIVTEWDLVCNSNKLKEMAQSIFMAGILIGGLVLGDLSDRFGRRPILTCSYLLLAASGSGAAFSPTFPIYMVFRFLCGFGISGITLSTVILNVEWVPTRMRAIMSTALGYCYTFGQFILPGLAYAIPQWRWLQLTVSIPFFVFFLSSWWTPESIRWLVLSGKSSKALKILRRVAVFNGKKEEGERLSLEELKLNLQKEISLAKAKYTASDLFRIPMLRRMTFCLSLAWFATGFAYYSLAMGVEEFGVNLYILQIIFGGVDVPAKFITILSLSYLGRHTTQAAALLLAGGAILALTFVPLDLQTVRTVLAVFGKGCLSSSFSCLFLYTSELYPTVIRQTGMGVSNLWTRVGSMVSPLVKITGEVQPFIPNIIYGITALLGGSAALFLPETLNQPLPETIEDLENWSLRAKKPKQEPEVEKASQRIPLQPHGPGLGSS
Conditions: 100 μmol/L, 10 min, with or without Prb 200 μmol/L

**Q.** `CC1(C)C[C@@H]1C(=O)N/C(=C\CCCCSC[C@H](N)C(=O)O)C(=O)O` [Cil, cilastatin] was tested. Which “Substrate of hOAT3 (uptake vs Mock cells, inhibited by Prb)” value did it give?
**A.** substrates of hOAT1 and hOAT3
